# Measurements published in PubChem BioAssay AID869 (SRMLSC, 2007).
# This is a selection; strong and weak results do not stand in their true shares. Activity calls are given as the source filed them.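 How the source made its calls: active means inhibition over a set limit, the all-compound mean plus 3 SD, in both replicate runs; inconclusive means over that limit in just one replicate run; inactive means at or under that limit in both runs.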
# Test: RAM pathway blockade in budding yeast – dse1pr::URA3 reporter, 5-FOA selection, pilot screen (AID 869);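 further: 0% = DMSO wells with no growth and 100% = 10 µM 1-NA-PP1 with full growth; RAM network block rescues cells from 5-FOA so hits raise OD615 growth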
# Settings: S. cerevisiae dse1pr::URA3 5-FOA growth, OD615, 2 d; at 10 µM; stronger effect = higher value; strain carries analog-sensitive mutant Cbk1 kinase
row,SMILES,inhibition
1,CP(=O)(Oc1ccccc1)N1CCOC1=O (stereo not given),inactive: 3.34%
2,CP(=O)(Nc1ccc2c(c1)OCCO2)Oc1ccccc1 (stereo not given),inactive: 2.65%
3,Cc1ccc(C)c(NP(C)(=O)Oc2ccccc2)c1 (stereo not given),inactive: 0.01%
4,CP(=O)(NC(=O)Nc1ccccc1)Oc1ccccc1 (stereo not given),inactive: 1.29%
5,Cc1ccc(NP(C)(=O)Oc2ccccc2)c(C)c1 (stereo not given),inactive: 0.475%
